Protein sequences, listed by entry. Tags and fused reporters are not part of them.
UniProt Q13489, whole entry: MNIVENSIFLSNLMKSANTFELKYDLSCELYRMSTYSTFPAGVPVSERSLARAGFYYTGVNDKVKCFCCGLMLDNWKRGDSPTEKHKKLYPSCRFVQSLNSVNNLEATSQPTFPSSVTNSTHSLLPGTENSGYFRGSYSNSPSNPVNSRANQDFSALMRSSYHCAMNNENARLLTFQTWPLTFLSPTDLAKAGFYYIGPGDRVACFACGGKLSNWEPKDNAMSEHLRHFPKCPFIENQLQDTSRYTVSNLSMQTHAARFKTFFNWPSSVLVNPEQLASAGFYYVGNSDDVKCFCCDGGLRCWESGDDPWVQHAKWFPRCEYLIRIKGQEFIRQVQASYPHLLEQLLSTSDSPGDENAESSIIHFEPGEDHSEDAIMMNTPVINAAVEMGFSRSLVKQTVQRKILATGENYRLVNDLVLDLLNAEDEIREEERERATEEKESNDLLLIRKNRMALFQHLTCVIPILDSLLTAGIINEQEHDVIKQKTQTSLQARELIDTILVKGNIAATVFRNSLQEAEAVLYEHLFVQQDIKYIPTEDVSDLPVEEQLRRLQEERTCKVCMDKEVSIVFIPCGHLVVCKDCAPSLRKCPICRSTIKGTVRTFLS

In ChEMBL document CHEMBL3804826, “MALT1 Inhibitors May Potentially Treat Lymphomas and Autoimmune Disorders” (ACS Med Chem Lett, 2016):

What was measured:
[1] = target: T1, Mucosa-associated lymphoid tissue lymphoma translocation protein 1 (Homo sapiens, UniProt Q9UDY8); assay: Inhibition of MALT1 (unknown origin) expressed in human Jurkat Clone K22 29Q_H23 cells assessed as IL2 production preincubated for 30 mins followed by PMA stimulation for 5.5 hrs by luciferase reporter gene assay; type: cell-based
T1 sequence (Q9UDY8 whole entry): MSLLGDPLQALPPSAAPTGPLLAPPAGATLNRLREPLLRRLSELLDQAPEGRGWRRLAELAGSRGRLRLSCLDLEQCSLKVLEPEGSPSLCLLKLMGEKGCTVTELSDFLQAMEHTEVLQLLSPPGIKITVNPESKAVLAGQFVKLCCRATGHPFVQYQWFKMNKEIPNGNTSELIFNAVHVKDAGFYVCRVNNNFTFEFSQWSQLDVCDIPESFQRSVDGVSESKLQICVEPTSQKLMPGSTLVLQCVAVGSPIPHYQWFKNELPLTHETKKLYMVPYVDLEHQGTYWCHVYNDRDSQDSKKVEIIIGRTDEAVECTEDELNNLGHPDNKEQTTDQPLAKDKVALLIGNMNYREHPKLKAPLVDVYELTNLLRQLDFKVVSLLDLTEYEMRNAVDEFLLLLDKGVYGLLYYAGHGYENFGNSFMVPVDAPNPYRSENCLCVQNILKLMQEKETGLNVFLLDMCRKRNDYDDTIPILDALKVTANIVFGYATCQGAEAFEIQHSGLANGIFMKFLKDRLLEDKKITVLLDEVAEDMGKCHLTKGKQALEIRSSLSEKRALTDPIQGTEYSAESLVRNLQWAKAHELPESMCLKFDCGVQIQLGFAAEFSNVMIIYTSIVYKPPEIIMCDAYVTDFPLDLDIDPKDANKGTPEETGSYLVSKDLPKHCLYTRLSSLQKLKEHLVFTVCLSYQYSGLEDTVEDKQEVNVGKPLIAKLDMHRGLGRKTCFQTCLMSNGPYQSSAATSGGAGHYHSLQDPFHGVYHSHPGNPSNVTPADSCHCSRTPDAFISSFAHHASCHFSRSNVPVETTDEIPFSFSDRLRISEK

[2] = target: Baculoviral IAP repeat-containing protein 3/Mucosa-associated lymphoid tissue lymphoma translocation protein 1 (Homo sapiens, UniProt Q13489+Q9UDY8); assay: Inhibition of cIAP2-MALT1 (unknown origin) expressed in HEK293 cells assessed as inhibition of NFkappaB signaling after 24 hrs by luciferase reporter gene assay; type: cell-based

## O=C(Nc1cnc(-n2nccn2)c(C(F)(F)F)c1)Nc1cnc2cc(Cl)nn2c1C1CCCO1 (configuration not stated)
[1]
  IC50: 94 nM
[2]
  IC50: 117 nM
